Screens from PubChem BioAssay.
SR-BI uptake up – activators of SR-BI mediated HDL lipid uptake; CHO ldlA[mSR-BI] cells, DiI-HDL uptake fluorescence, 3 h; 100 = double the neutral-control signal; activation, % at 12.5 µM; 320,000 compounds, 0.096% hits; AID 504775;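 active means mean replicate activation of at least 60% and every replicate at or above 60%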;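 further: 0% = median plate neutral-control signal and 100% = twice that signal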
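System: LDL receptor-deficient CHO ldlA cells overexpressing murine SR-BI | Timing: 3 h uptake period with compound, 37 °C | Medium: HEPES-buffered (25 mM, pH 7.4) F12 plus 0.5% BSA | Dosing: Single-point compound dose | Signal: Bottom-read fluorescence, 550/595 nm | Read-out: Retained DiI signal reflecting DiI-HDL uptake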
SR-BI HDL uptake – mouse SR-BI HDL lipid transfer inhibition; Q61009; ldlA[mSR-BI] CHO cells, DiI-HDL uptake fluorescence, 3 h; inhibition, % at 12.5 µM; 320,000 compounds, 0.96% hits;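 active means mean replicate inhibition of at least 70% and a set share of replicates each scoring 70 or more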;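 further: 0% = median of neutral control wells and 100% = median of positive control wells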
INS-1E GSIS act – GLuc luminescence reporter in INS-1E cells, primary screen for activators of glucose-dependent secretion of insulin; INS-1E GLuc reporter insulin secretion, 2-3 h; AID 743287; activation, % at 16.6 µM; 370,000 compounds, 0.61% hits;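 active means lowest replicate activation of at least 40%, so every replicate reaches that level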;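 further: 0% = median of neutral control wells and 100% = median of IBMX positive control wells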
Yeast UUG start – modulators of yeast start codon fidelity, primary screen, whole organism, S. cerevisiae, single point, plate reader | AID 602363, 2012 | S. cerevisiae UUG-firefly luciferase reporter, luminescence/redox ratio | activity score, % at 18.7 µM | hit rate 0.13% among 350,000;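 active = replicate mean at a twofold rise or more, about +100% in these data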;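 also: firefly luciferase made from a UUG start codon reports start codon fidelity; reporter light over untreated wells divided by growth signal over untreated wells; some hits fall short of that in this replicate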
* = called active by the depositor; x = no result. Sampled rows, rich in hits. Any-hit rate of the full collection: about 1.3%.

Letter code: A = SR-BI uptake up; B = SR-BI HDL uptake; C = INS-1E GSIS act; D = Yeast UUG start
C=CCNc1cc(C)oc(=O)c1C(=O)CCC
  A: x	B: x	C: 71*	D: -15
CCCCC1Cc2[nH]c(=S)[nH]c(=O)c2C(C(C)C)O1 (stereo unspecified)
  A: x	B: x	C: 42*	D: x
CC(C)NC(=O)Nc1cccc2c1O[C@@H](CN(C)C(=O)Nc1ccc3c(c1)OCO3)[C@@H](C)CN([C@H](C)CO)C2=O
  A: x	B: x	C: 1	D: 1
C=C1c2cccc(OC)c2O[C@H](C(=O)OCC)[C@@H]1CC(CC)CCCC (stereo partly specified)
  A: -84	B: 84*	C: 2	D: 12
CCOC(=O)/C=C1\CC(C(=O)OCC)Oc2c(OC)cccc21 (stereo unspecified)
  A: -14	B: 14	C: -2	D: -10
COC(=O)c1cc(NC(=O)c2cc(-c3ccccc3Cl)oc2C(F)(F)F)ccc1N1CCOCC1
  A: -84	B: 84*	C: -21	D: 0
C/C(=N\NC(=O)c1cccc(Br)c1)c1ccc(Br)cc1
  A: -2	B: 2	C: 56*	D: -4
C/C(=N\NC(=O)c1ccccc1)c1cccc(Br)c1
  A: 1	B: -1	C: 4	D: x
CCCOC(=O)c1c(NC(=O)/C=C/c2cnn(C)c2C)sc(C(=O)OC)c1C
  A: -55	B: 55	C: 1	D: -17
CCCOC(=O)c1c(NC(=O)/C=C/c2cnn(C)c2C)sc(C(=O)OCC)c1C
  A: -76	B: 76*	C: 26	D: 0
COC(=O)Cn1c(=NC(=O)c2ccc(OC)cc2)sc2cc(OC)ccc21
  A: -71	B: 71*	C: 11	D: x
COC(=O)Cn1c(=NC(=O)c2cc(OC)cc(OC)c2)sc2cc(OC)ccc21
  A: -62	B: 62	C: -16	D: -12
COC(=O)CN(c1cccc(C)c1)S(=O)(=O)c1ccccc1
  A: -26	B: 26	C: 46*	D: -19
COc1ccc(S(=O)(=O)N(C)C[C@@H]2Oc3c(NC(=O)c4ccncc4)cccc3C(=O)N([C@@H](C)CO)C[C@H]2C)cc1
  A: x	B: x	C: 8	D: -14
COc1ccc([C@H]2CC(=O)C=C(c3ccc(F)cc3OCc3ccccc3)C2)cc1
  A: 19	B: -19	C: 6	D: -23
O=C1C=C(c2ccc(F)cc2OCc2ccccc2)C[C@@H](c2ccc(F)cc2)C1
  A: -75	B: 75*	C: 5	D: -19
C[C@@H]1CN([C@@H](C)CO)S(=O)(=O)c2ccc(C#CC(C)(C)O)cc2O[C@H]1CN(C)C(=O)C1CCC1
  A: x	B: x	C: -6	D: -5
C[C@H]1CN([C@@H](C)CO)C(=O)c2cc(C#CC3CCCCC3)cnc2O[C@@H]1CN(C)C(=O)C1CCCCC1
  A: x	B: x	C: -11	D: 4
O=C(CN1c2ccccc2Sc2ccccc21)NNC(=S)Nc1ccc(Cl)cc1
  A: -63	B: 63	C: -17	D: -18
O=C(CN1c2ccccc2Sc2ccccc21)NNC(=S)Nc1ccc(Cl)cc1Cl
  A: -76	B: 76*	C: x	D: x
CCC(C)(C)c1ccc(OCCCC[n+]2cccc(C)c2)c(C(C)(C)CC)c1
  A: 22	B: -22	C: 185*	D: x
Cc1ccc[n+](CC(=O)Nc2cc(C(F)(F)F)ccc2Cl)c1
  A: 7	B: -7	C: 27	D: -23
OC(CNCCc1ccc(C(F)(F)F)cc1)COc1ccc2ccccc2c1 (stereo unspecified)
  A: -16	B: 16	C: 64	D: x
OC(CNCCc1ccc(C(F)(F)F)cc1)COc1cccc2ccccc12 (stereo unspecified)
  A: -14	B: 14	C: 506*	D: x
C[C@H](CO)N1C[C@H](C)[C@@H](CN(C)C(=O)C2CCOCC2)Oc2cc(C#Cc3ccncc3)ccc2S1(=O)=O
  A: x	B: x	C: 8	D: 2

Next structures.
Letter code: A = SR-BI uptake up; B = SR-BI HDL uptake; C = INS-1E GSIS act; D = Yeast UUG start
CCCCC(=O)N(Cc1ccc2c(c1)OCO2)Cc1nc2ccccc2c(=O)[nH]1
  A: 3	B: -3	C: -1	D: x
CCCCN(Cc1nc2ccccc2c(=O)[nH]1)C(=O)c1nn(C)c(=O)c2ccccc12
  A: -15	B: 15	C: 47*	D: -16
Cc1cc2nc(-c3ccc(Cl)cc3)c(Cc3ccsc3)n2c(C)c1Br
  A: x	B: x	C: 100*	D: x
C/C=C/c1ccc([C@H]2[C@@H](CO)N(C(=O)c3cnccn3)C23CN(C(=O)CC)C3)cc1
  A: x	B: x	C: 8	D: x
COc1ccccc1CCn1cnc(-c2cccc(F)c2)c1CC(C)C
  A: x	B: x	C: 141*	D: x
CCCCc1c(-c2ccccc2OC)ncn1C(C)c1ccc(Cl)cc1 (stereo unspecified)
  A: x	B: x	C: 55*	D: x
COc1ccccc1CCn1cnc(-c2ccc(Cl)cc2)c1CC(C)C
  A: x	B: x	C: 307*	D: x
CCCCc1c(-c2ccccc2OC)ncn1Cc1ccccc1
  A: x	B: x	C: 36	D: x
CCCc1c(-c2ccc(OC)cc2)ncn1CCc1ccccc1OC
  A: x	B: x	C: -37	D: x
CCCCCc1c(-c2ccccc2F)ncn1CCc1ccccc1OC
  A: x	B: x	C: 20	D: x
CCCCc1c(-c2ccccc2F)ncn1CCc1ccccc1OC
  A: x	B: x	C: 64*	D: x
CN1c2ccc(-c3ccccc3)cc2[C@@H]2[C@@H](CCN2C(=O)c2ccccn2)[C@H]1CO
  A: x	B: x	C: 4	D: 1
CCCNC(=O)N1[C@H](CO)[C@@H]2c3ccccc3N(C(=O)NC(C)C)C[C@@H]21
  A: x	B: x	C: -1	D: 13
COc1ccccc1-c1oc2ccccc2c1-c1ccc2cc[nH]c2c1
  A: -80	B: 80*	C: 28	D: 5
COc1ccc2c3c(n(C)c2c1)[C@H](CO)N(CC1CC1)CC31CCN(Cc2ccc(F)cc2)CC1
  A: x	B: x	C: 1	D: x
Cc1ccc(/C=N/NC(=O)c2ccc(-n3cnnn3)cc2)cc1
  A: -13	B: 13	C: 10	D: -5
CC(C)c1ccc(/C=N/NC(=O)c2ccc(-n3cnnn3)cc2)cc1
  A: -84	B: 84*	C: 8	D: -5
COc1cc2sc3ccc(-c4ccc(CN5CCOCC5)cc4)cc3c(=O)c2cc1OC
  A: -71	B: 71*	C: 13	D: 12
COc1ccc(CN2CCOCC2)cc1OC
  A: 10	B: -10	C: x	D: -26
CC(C)CNC(=S)Nc1ccc(Oc2ccccc2)cc1
  A: 0	B: 0	C: 85*	D: x
O=C(CN1CCOCC1)NCC[C@H]1CC[C@@H](NS(=O)(=O)c2ccc(F)cc2)[C@@H](CO)O1
  A: x	B: x	C: 15	D: x
COc1ccc(-c2oc3ccccc3c2C#CC(C)(C)O)cc1
  A: -79	B: 79*	C: x	D: -6
COc1ccc(/C=C/C(=O)NCC(=O)N/N=C/c2cc(Br)ccc2OC)cc1
  A: -78	B: 78*	C: x	D: -22
COc1ccccc1/C=C/C(=O)NCC(=O)N/N=C/c1cc(Br)ccc1OC
  A: -98	B: 98*	C: -30	D: x
Cc1noc(C)c1NC(=O)Nc1cccc2c1O[C@@H](CN(C)Cc1ccc(-c3ccccc3)cc1)[C@@H](C)CN([C@@H](C)CO)C2=O
  A: x	B: x	C: -20	D: 1

Three compounds out of the list above, arranged by their value in SR-BI uptake up, low to high:
structure | SR-BI uptake up
COc1ccccc1-c1oc2ccccc2c1-c1ccc2cc[nH]c2c1 | -80
CCCCN(Cc1nc2ccccc2c(=O)[nH]1)C(=O)c1nn(C)c(=O)c2ccccc12 | -15
COc1ccc(CN2CCOCC2)cc1OC | 10

(continued)
Letter code: A = SR-BI uptake up; B = SR-BI HDL uptake; C = INS-1E GSIS act; D = Yeast UUG start
COc1ccc(CN(C)C[C@@H]2Oc3c(NS(=O)(=O)c4ccc(OC)cc4)cccc3C(=O)N([C@H](C)CO)C[C@H]2C)cc1
  A: x	B: x	C: -7	D: 11
CCOc1ccc(-n2c(SCC(=O)Nc3nccs3)nc3c(c2=O)SCC3)cc1
  A: 3	B: -3	C: x	D: 3
Cc1ccc(-n2c(SCC(=O)Nc3nccs3)nc3c(c2=O)SCC3)cc1
  A: -9	B: 9	C: 82*	D: -23
O=C(N/N=C/c1ccc([N+](=O)[O-])cc1)c1ccccc1OCc1ccccc1
  A: 3	B: -3	C: 1	D: -22
O=C(N/N=C/c1ccc([N+](=O)[O-])cc1)c1ccc(COc2ccccc2-c2ccccc2)cc1
  A: -99	B: 99*	C: -8	D: x
O=c1c2c3nc4ccccc4nc3n(/N=C/c3ccco3)c2ncn1CCC1=CCCCC1
  A: 67*	B: -67	C: x	D: 3
Cc1nc2c(c(=O)n1CCC1=CCCCC1)c1nc3ccccc3nc1n2/N=C/c1ccccc1
  A: 23	B: -23	C: x	D: x

Quoted at random: 2 entries already listed
Letter code: A = SR-BI uptake up; B = SR-BI HDL uptake; C = INS-1E GSIS act; D = Yeast UUG start
CCOc1ccc(-n2c(SCC(=O)Nc3nccs3)nc3c(c2=O)SCC3)cc1
  A: 3	B: -3	C: x	D: 3
Cc1nc2c(c(=O)n1CCC1=CCCCC1)c1nc3ccccc3nc1n2/N=C/c1ccccc1
  A: 23	B: -23	C: x	D: x
